Experimental data from article PMC8452302 (CPT: Pharmacometrics & Systems Pharmacology, 2021).

Protein sequences, listed by entry. Tags and fused reporters are not part of them. Lines headed by an entry give the natural chain unless they say otherwise; changes in a name come on top.
UniProt Q9UNQ0: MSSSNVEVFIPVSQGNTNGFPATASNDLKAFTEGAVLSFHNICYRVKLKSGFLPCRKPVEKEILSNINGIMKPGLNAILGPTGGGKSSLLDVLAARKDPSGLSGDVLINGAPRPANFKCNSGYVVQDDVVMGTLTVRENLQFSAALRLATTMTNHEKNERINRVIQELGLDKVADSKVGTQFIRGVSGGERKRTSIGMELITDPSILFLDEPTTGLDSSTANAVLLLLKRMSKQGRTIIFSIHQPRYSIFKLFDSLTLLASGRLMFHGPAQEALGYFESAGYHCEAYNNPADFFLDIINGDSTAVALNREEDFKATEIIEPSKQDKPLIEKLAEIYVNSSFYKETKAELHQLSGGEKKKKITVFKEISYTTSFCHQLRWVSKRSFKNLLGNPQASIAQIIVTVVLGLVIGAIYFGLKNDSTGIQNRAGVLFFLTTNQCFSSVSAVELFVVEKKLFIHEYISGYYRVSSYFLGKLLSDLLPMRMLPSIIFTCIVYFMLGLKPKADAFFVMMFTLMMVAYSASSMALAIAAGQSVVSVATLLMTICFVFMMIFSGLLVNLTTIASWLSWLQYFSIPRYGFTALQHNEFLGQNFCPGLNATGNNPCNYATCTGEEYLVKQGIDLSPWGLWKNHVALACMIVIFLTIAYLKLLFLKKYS

Molecular target: BCRP (Homo sapiens, UniProt Q9UNQ0)
Test: In vitro BCRP inhibition, HEK293-BCRP membrane vesicles, rosuvastatin probe
Format: biochemical

## CO[C@H]1/C=C/O[C@@]2(C)Oc3c(C)c(O)c4c(O)c(c(/C=N/N5CCN(C)CC5)c(O)c4c3C2=O)NC(=O)/C(C)=C\C=C\[C@H](C)[C@H](O)[C@@H](C)[C@@H](O)[C@@H](C)[C@H](OC(C)=O)[C@@H]1C [Rifampicin]
  IC50: 14.9 µM
